Binding of CDR-mutated scFvs to a peptide of the spike HR2 region

Values reported by Engelhart et al. 2022, doi:10.1038/s41597-022-01779-4 (FLAb copy).

Target peptide (SARS-CoV-2 spike, HR2 region): PDVDLGDISGINAS

Parent scFv Ab-14: VH joined to VL by a 15-residue (Gly4Ser)3 linker. Changes lie in the light chain CDRs alone.
VH: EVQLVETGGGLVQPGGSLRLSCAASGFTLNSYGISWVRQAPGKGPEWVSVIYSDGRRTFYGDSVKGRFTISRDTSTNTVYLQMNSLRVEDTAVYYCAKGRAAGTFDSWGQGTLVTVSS
VL: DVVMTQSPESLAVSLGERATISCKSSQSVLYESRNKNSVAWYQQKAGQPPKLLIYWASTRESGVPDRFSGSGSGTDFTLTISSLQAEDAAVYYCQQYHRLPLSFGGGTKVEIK

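The starting antibody came from a phage panning campaign against this peptide. Library AAYL50 holds single substitutions and randomly drawn double and triple substitutions in the CDRs. In AlphaSeq, yeast of one mating type display the scFv and yeast of the other type display the target. Pairs that bind mate more often; barcode pairs of the diploids are counted by sequencing. Scores were corrected for input abundance and mapped to Kd with protein pairs of known affinity run in the same pool. There are three technical replicates.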

Each variant's VL is given in full. Values are apparent Kd, the geometric mean of the replicates that gave a signal; lower means stronger binding. Where no diploid with the target was found in any replicate, the entry reads "no signal": below detection, most likely a poor binder, though not proof of it. Background: pairings of library AAYL50 with three empty control strains gave a value in 18% of cases (median 15 µM, 5th percentile 970 nM). Values in that range, when seen in few replicates, are hard to tell from nonspecific mating. For each scFv, signals with the empty controls are counted beside the result.

Variant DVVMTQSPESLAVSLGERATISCKSSQSVLYETRNKRSVAWYQQKAGQPPKLLIYWASRRESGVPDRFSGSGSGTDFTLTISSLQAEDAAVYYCQQYHRLPLSFGGGTKVEIK gave 5.7 nM (3 of 3 replicates; controls 2 of 9).
Variant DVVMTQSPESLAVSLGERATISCKISQSVLHESRNKNSIAWYQQKAGQPPKLLIYWASTRESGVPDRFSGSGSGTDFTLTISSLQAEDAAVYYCQQYHRLPLSFGGGTKVEIK gave 680 pM (3 of 3 replicates; controls 6 of 9).
Variant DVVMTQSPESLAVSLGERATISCKSSQSVLYESRNFNSVAWYQQKAGQPPKLLIYWAITRESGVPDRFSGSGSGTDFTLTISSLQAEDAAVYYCTQYHRLPLSFGGGTKVEIK gave no signal (0 of 3 replicates; controls 1 of 9).
Variant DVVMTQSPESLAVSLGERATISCKSSQSVLYESRNENSTAWYQQKAGQPPKLLIYWASTRESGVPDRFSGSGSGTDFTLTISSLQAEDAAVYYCQQYHRLPLTFGGGTKVEIK gave no signal (0 of 3 replicates; controls 0 of 9).
Variant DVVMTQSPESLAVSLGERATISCKSSQSVLYESRNKNSVAWYQQKAGQPPKLLIYCMSTRESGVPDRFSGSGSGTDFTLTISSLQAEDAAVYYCQQQHRLPLSFGGGTKVEIK gave 46 µM (1 of 3 replicates; controls 3 of 9).
Variant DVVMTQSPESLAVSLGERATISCKSSQFVLYESRNKNSVAWYQQKAGQPPKLLIYWASTSQSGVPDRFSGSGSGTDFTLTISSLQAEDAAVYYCQQYHRLPLSFGGGTKVEIK gave 150 nM (3 of 3 replicates; controls 3 of 9).
Variant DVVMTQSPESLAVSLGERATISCKHCPSVLYESRNKNSVAWYQQKAGQPPKLLIYWASTRESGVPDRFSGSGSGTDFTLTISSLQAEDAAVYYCQQYHRLPLSFGGGTKVEIK gave 95 nM (3 of 3 replicates; controls 2 of 9).
Variant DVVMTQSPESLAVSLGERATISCKSSQWGLYESRNKNSVAWYQQKAGQPPKLLIYWAGTRESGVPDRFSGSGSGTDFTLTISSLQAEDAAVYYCQQYHRLPLSFGGGTKVEIK gave 180 nM (3 of 3 replicates; controls 3 of 9).
Variant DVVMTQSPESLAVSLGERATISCDSSQSVLYESRNKASVAWYQQKAGQPPKLLIYWASTRESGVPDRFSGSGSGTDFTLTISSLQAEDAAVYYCQQYHRLPLPFGGGTKVEIK gave no signal (0 of 3 replicates; controls 3 of 9).
Variant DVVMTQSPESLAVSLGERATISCKGSQSVLYESRNKNSVAWYQQKAGQPPKLLIYWASTWCSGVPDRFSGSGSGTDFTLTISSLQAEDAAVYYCQQYHRLPLSFGGGTKVEIK gave 90 µM (1 of 3 replicates; controls 3 of 9).
Variant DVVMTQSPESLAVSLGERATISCKSSQMVLYESRNKNSVAWYQQKAGQPPKLLIYWASTRESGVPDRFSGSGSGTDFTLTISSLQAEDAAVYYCAQYHFLPLSFGGGTKVEIK gave no signal (0 of 3 replicates; controls 0 of 9).
Variant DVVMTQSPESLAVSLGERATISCKSSQSVLYESRNKNSVTWYQQKAGQPPKLLIYWASTREKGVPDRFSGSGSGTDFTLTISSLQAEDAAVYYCQQYHKLPLSFGGGTKVEIK gave 4.5 µM (1 of 3 replicates; controls 2 of 9).
Variant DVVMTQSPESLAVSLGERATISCMSSQSVLYESRNMNSVAWYQQKAGQPPKLLIYWASTRESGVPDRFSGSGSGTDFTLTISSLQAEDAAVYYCQQYHRDPLSFGGGTKVEIK gave 8.6 nM (3 of 3 replicates; controls 1 of 9).
Variant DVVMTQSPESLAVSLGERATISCKSSQSVLYESRNKNSVAWYQQKAGQPPKLLIYWASTRDSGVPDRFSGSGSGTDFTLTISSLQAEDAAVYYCQQFHRPPLSFGGGTKVEIK gave no signal (0 of 3 replicates; controls 0 of 9).
Variant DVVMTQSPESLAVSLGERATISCKSSQSVLYESRNLNSVAWYQQKAGQPPKLLIYWASTRESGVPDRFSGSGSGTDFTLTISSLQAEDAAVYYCQQEHRLPLSFGGGTKVEIK gave no signal (0 of 3 replicates; controls 0 of 9).
Variant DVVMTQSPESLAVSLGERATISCHSSQSVLYESKNKNSVAWYQQKAGQPPKLLIYWASTRESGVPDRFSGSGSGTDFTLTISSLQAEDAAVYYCQQYHRLCLSFGGGTKVEIK gave 15 nM (3 of 3 replicates; controls 0 of 9).